From ChEMBL document CHEMBL4765267, “Targeting different binding sites in the CFTR structures allows to synergistically potentiate channel activity” (Eur J Med Chem, 2020)
Active and inactive are the calls of the source. No cut-off for these calls is given here.

Sequences of proteins named here, by UniProt entry; tags and fusion partners are left off. A line that says so, or that is headed by a name, gives the form on record, which may keep a tag or linker.
UniProt P13569, as listed by the source: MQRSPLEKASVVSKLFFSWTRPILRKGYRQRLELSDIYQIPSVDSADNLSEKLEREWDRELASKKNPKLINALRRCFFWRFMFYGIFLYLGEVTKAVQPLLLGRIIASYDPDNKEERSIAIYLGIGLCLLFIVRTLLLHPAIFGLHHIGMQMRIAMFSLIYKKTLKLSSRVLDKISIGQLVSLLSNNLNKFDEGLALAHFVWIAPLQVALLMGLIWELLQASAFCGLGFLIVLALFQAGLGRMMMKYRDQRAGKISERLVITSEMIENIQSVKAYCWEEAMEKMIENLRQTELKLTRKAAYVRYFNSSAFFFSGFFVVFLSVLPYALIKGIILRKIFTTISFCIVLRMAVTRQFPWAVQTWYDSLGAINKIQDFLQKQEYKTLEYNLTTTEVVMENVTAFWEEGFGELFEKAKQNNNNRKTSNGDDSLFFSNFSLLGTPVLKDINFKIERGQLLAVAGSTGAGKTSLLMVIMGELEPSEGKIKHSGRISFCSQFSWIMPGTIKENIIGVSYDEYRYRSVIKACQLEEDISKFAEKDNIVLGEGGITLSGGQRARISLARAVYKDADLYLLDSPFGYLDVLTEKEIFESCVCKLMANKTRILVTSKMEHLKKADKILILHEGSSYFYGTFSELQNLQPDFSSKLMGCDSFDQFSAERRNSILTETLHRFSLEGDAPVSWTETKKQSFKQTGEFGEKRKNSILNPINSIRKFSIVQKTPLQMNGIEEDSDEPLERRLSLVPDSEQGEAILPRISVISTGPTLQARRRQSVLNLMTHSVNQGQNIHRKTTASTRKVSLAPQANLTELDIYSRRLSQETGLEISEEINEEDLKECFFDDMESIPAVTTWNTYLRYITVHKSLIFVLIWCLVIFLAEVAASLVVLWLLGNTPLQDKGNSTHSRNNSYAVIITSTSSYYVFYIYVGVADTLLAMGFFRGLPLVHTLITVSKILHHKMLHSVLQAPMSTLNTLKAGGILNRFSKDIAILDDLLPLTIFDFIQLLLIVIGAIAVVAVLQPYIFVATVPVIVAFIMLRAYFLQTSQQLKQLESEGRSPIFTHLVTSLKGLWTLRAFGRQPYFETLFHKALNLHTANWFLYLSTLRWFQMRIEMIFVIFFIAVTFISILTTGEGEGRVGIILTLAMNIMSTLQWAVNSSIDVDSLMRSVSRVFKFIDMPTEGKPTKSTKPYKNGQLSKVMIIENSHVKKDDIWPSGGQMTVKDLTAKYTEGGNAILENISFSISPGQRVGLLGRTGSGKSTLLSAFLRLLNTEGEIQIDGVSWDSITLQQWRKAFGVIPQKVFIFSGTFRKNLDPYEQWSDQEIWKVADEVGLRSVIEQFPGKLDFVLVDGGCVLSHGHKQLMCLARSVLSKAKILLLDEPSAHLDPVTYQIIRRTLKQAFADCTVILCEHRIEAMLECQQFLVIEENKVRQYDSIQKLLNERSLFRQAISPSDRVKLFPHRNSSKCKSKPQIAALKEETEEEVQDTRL
UniProt P13569, whole entry, looked up: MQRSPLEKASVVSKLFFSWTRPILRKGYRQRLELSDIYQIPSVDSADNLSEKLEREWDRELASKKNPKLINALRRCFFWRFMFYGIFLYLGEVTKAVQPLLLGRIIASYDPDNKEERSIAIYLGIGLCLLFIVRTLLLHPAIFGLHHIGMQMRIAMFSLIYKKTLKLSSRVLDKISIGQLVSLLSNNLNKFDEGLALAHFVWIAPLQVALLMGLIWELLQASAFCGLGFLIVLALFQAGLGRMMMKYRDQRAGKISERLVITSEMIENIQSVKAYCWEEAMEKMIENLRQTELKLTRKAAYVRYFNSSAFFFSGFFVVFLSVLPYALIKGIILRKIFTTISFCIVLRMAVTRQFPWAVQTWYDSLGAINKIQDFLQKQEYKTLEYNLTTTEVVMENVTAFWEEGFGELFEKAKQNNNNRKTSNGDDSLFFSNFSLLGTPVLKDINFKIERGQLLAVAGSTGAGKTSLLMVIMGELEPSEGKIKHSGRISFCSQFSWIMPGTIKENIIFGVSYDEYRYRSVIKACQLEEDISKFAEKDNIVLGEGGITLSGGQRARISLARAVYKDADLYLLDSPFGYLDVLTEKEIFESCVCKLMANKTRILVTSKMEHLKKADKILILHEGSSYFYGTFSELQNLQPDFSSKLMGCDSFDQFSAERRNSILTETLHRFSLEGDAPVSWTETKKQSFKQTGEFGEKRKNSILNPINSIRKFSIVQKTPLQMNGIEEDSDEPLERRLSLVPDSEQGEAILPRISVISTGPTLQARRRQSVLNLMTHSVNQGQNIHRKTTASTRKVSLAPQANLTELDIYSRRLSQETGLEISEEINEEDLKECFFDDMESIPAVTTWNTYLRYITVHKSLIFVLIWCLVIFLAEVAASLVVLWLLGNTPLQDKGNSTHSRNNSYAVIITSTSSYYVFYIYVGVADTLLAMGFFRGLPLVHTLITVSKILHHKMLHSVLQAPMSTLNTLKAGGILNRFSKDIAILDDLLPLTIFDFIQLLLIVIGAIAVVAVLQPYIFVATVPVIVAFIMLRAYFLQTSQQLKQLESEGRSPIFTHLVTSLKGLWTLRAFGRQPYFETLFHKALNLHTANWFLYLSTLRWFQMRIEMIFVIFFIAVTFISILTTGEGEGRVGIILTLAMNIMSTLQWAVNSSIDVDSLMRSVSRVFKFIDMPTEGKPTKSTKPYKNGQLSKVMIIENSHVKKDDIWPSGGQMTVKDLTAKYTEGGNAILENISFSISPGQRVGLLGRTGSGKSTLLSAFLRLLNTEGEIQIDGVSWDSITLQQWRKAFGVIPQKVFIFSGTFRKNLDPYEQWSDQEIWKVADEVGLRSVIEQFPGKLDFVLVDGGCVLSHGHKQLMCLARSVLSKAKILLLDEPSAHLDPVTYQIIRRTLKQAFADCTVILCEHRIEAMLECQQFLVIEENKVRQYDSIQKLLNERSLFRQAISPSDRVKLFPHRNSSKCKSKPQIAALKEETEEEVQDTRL
UniProt P13569, whole entry G551D: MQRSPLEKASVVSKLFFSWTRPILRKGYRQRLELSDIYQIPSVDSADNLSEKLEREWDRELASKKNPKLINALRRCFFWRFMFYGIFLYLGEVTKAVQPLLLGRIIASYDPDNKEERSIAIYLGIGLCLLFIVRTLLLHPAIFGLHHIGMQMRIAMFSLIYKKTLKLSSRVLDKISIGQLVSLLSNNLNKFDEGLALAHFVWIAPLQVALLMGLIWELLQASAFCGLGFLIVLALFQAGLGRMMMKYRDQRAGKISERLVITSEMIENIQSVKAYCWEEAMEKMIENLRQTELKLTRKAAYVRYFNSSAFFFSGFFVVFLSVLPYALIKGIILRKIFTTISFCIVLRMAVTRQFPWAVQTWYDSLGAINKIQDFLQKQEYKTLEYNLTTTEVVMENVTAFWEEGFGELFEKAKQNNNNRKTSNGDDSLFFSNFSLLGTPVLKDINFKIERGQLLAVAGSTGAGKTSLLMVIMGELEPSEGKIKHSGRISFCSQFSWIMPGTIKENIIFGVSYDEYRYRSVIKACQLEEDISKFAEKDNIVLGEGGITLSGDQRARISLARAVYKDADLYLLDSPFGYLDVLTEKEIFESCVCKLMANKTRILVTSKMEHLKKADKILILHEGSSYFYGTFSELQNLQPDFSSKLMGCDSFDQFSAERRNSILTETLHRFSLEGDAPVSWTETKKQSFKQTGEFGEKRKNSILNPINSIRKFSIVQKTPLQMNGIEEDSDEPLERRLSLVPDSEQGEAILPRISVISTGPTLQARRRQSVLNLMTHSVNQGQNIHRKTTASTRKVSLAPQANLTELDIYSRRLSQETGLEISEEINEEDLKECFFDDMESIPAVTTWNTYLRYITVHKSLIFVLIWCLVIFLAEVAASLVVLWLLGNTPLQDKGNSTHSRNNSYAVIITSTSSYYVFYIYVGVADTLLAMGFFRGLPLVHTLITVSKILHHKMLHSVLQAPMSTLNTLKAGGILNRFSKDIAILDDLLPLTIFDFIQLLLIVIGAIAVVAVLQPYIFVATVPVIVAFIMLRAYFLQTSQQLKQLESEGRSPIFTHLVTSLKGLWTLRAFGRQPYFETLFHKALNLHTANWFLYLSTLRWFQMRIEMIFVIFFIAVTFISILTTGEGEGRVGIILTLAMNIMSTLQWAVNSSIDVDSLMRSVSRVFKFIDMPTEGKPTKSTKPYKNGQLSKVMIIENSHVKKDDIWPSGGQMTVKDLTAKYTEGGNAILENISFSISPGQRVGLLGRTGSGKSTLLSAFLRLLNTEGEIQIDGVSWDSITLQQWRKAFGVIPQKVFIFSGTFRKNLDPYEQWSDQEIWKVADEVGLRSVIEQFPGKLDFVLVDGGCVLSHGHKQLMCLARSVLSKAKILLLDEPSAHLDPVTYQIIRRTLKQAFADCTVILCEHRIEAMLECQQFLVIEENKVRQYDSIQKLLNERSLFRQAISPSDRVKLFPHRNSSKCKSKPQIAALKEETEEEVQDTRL
UniProt P13569, whole entry G1349D: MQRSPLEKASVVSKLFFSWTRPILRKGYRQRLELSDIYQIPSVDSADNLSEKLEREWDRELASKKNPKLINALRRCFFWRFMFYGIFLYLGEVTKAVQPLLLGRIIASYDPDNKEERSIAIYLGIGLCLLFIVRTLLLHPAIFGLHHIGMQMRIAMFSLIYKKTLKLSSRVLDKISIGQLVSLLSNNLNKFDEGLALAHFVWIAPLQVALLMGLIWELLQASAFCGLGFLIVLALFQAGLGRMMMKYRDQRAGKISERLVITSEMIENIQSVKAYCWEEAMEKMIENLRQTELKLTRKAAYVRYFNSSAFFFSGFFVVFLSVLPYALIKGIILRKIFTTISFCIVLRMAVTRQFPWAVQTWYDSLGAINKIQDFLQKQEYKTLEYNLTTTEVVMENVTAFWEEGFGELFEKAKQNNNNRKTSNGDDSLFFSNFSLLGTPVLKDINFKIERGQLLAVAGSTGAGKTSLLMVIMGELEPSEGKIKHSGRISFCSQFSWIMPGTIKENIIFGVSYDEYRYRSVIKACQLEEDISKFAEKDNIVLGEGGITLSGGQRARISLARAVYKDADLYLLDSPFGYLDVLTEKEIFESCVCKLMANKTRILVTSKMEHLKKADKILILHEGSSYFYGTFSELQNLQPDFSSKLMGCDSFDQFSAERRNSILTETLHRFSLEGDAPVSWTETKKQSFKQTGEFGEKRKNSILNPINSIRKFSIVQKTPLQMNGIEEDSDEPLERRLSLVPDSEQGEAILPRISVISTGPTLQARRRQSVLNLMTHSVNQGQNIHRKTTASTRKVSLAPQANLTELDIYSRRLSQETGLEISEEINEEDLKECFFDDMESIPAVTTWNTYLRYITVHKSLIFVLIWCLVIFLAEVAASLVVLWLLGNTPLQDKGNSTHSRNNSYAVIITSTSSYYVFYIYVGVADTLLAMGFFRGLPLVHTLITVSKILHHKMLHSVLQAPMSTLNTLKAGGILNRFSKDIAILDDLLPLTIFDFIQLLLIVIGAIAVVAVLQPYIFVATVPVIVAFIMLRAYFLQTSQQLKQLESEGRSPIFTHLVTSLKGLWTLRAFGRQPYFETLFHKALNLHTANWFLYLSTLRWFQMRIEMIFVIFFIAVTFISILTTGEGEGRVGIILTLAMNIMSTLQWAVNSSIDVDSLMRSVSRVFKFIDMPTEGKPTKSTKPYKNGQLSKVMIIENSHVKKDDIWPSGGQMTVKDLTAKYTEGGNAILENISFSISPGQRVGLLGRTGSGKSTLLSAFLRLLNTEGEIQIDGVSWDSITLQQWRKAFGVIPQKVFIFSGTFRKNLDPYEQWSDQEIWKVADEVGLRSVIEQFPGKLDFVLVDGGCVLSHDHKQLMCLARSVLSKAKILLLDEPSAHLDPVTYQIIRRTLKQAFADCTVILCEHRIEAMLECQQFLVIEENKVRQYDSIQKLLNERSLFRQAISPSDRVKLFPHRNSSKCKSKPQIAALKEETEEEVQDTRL

Key:
Format in all cases: cell-based
Conditions in all cases: filed as activator
[1] = tested on: Cystic fibrosis transmembrane conductance regulator (Homo sapiens), P13569 [F508del]; assay: Potentiator activity at CFTR F508del mutant (unknown origin) expressed in CFBE41o cells assessed as increase in short-circuit current at 1 uM incubated for 24 hrs in presence of 10 uM VX-809 by Ussing chamber assay
Summary of the method: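 CFBE41o- cells stably overexpressing F508del-CFTR, grown on fibronectin-coated inserts at air/liquid interface until resistance ≥300 Ω·cm-2. Corrected 24 h with 10 µM VX-809, with VX-809 (10 µM) and amiloride (100 µM) added apically at the start. CFTR pre-activated with 0.1 µM forskolin, then compounds added apically in sequence. ΔIsc recorded at 35-38 °C, gassed 95% O2/5% CO2.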

[2] = tested on: Cystic fibrosis transmembrane conductance regulator (Homo sapiens), P13569 [F508del]; assay: Potentiation of CFTR F508 deletion mutant (unknown origin) expressed in HeLa cells assessed as current density at 0.1 uM after 24 hrs in presence of forskolin and CFTR inhibitor-172 by automated whole cell patch-clamp assay
[3] = target: Cystic fibrosis transmembrane conductance regulator (Homo sapiens) (UniProt P13569); assay: Potentiation of wild type CFTR (unknown origin) expressed in HEK293 cells at 10 uM by YFP fluorescence assay
Summary of the method: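 HEK293 cells co-transfected with YFP-H148Q/I152L and WT or mutant CFTR (Turbofect), plated in 96-well plates after 24 h. Cells incubated 30 min in PBS with cpt-cAMP 100 µM and IBMX 100 µM, with or without compounds (10 or 50 μM; VX-770 10 μM, alone or combined). NaI-PBS injected; exponential fit of fluorescence decay gives I⁻ influx rate (mM/s). One-way ANOVA with Fisher test.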

[4] = tested on: Cystic fibrosis transmembrane conductance regulator (Homo sapiens), P13569 [G551D]; assay: Potentiation of CFTR G551D mutant (unknown origin) expressed in HEK293 cells at 10 uM by YFP fluorescence assay
[5] = tested on: Cystic fibrosis transmembrane conductance regulator (Homo sapiens), P13569 [G1349D]; assay: Potentiation of CFTR G1349D mutant (unknown origin) expressed in HEK293 cells at 10 uM by YFP fluorescence assay
[6] = tested on: Cystic fibrosis transmembrane conductance regulator (Homo sapiens), P13569 [G970R]; assay: Potentiation of CFTR G970R mutant (unknown origin) expressed in HEK293 cells at 10 uM by YFP fluorescence assay

## CC(C)(C)c1cc(C(C)(C)C)c(NC(=O)c2c[nH]c3ccccc3c2=O)cc1O [IVACAFTOR]
[1]
  Activity: 3 uA.cm^-2
[2]
  Activity: 37.5 pA/pF
[3]
  Activity: Active
[4]
  Activity: Active
[5]
  Activity: Active
[6]
  Activity: Active
